Measured values: patent publication US20080063599A1, “Compounds Which Can Be Used To Diagnose And Monitor Diseases Associated With The Formation Of Amyloid Protein Fibrils” (priority 2002, published 2008)

Experiments:
[1] = test system: amyloid plaques in the mice brains; assay: SPECT images of transgenic mice; assay type: in vivo; conditions: Tg2576 mice; injected via the tail vein; images 4.5 hours after administration
Experimental: The study was performed using transgenic mice (Tg2576) in groups of 5 animals for each time value. The tracers (with SPECT-detectable radionuclides) (1-5 uCi) dissolved in 100 uL of PBS or in the appropriate solvent were injected via the tail vein.
SPECT images were obtained after 4.5 hours from the administration of the 5-chloro-8-hydroxy-7-[123I]iodoquinoline tracer by means of a double-head camera (MULTISPECT II, Siemens Medical Systems) equipped with parallel low energy high resolution collimators, using an energy window centred on the photopeak energy of the corresponding radionuclide (159 KeV for 123I).
^57Co sources were used which were placed on the head of the animal in order to aid reconstruction by means of anatomical references. 120 projections were obtained in a 360 degree turn, acquired in a 64×64 matrix. Two simultaneous acquisitions are performed, one using a window of 20% of the energy centred at 159 KeV for ^123I and another of 4% of the energy centred at 122 KeV for the ^57Co labels. Total exploration time was about 40 minutes. The SPECT images were reconstructed using a filter-back projection algorithm. The attenuation correction was performed using the Chang algorithm.
The semiquantitative analysis of the uptake was performed comparing the average/pixel counts in the region of interest with the average/pixel counts in control regions. […]

[2] = test system: amyloid plaques of the mice brains; assay: Quantitative autoradiography in transgenic mice and control mice; assay type: in vivo; conditions: intravenous injection via the jugular vein; brains removed after 2, 4, 6 hours; Tg2576 and control mice
Experimental: The 5-chloro-8-hydroxy-7-[^123I]iodoquinoline radioactive derivative is injected in transgenic mice (Tg2576) and control mice via the jugular vein under anaesthesia using a 30 g syringe. A series of controls and transgenic mice are examined. After 2, 4, 6 hours of the intravenous injection, the brains-of each mouse are removed, they are quickly cooled with dry ice and dissected using a Mokron HM 505E cryostat apparatus, placing them on glass sheets and drying them at room temperature. For the film autoradiography the sheets are placed in a MICROM optical densitometer obtaining greyscale images of the distribution of the radiopharmaceutical in the histological sections. Measured optical density is expressed as a percentage (%) of the maximum.

Oc1c([123I])cc(Cl)c2cccnc12 [5-chloro-8-hydroxy-7-[^123I]iodoquinoline]
distribution of amyloid plaques in SPECT images [1]: showed the distribution of the amyloid plaques | detection of amyloid plaques in film autoradiography images of brain sections [2]: optimal detection of amyloid plaques
